The values below come from patent US7097988B1 (ADVANCED RESEARCH AND TECHNOLOGY INSTITUTE, dated 2006).

By UniProt entry, the sequences of proteins in these tests, tags left out. Where a name states a change or a piece, a line headed by the entry shows the natural chain unless it says otherwise.
UniProt P35372, whole entry: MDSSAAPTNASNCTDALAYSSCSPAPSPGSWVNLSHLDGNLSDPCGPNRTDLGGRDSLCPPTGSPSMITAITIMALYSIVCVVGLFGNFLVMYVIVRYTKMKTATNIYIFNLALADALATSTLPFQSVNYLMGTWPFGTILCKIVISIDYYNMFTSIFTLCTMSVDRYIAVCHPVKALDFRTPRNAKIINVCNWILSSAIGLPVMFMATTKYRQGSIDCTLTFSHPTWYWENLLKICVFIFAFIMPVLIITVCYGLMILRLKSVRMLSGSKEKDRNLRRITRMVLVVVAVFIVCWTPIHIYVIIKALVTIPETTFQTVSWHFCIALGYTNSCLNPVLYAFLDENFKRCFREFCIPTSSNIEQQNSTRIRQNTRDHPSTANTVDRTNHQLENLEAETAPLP
UniProt P35370: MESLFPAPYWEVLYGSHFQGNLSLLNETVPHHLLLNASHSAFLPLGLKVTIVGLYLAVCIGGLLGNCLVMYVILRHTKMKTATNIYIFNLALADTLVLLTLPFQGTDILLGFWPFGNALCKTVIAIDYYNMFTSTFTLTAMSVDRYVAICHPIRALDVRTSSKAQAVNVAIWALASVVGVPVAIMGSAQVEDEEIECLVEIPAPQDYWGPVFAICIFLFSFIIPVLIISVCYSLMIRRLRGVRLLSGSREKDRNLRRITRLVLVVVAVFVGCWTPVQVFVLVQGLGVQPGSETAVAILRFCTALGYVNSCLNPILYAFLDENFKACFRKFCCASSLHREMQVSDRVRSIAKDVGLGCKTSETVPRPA

In experiment [1] the target is T1, cloned human μ opioid receptor (Homo sapiens, UniProt P35372).
T1 construct: the cDNA containing the open reading frame of the receptor was cloned downstream of the human cytomegalovirus promoter in the mammalian expression vector pcDNA3; expressed in transfected cells; host or cells: COS-7 (transient)
The conditions noted are these: read-out: Binding potencies (Ki-nM), human μ receptor, [3H]DAMGO.

In experiment [2] the target is T2, novel member of the opioid receptor gene family (SEQ ID NO: 17) (Rattus norvegicus, UniProt P35370).
T2 construct: mRNA of this clone was synthesized by in vitro transcription and coinjected into Xenopus oocytes; expressed in transfected cells; host or cells: Xenopus oocytes (mRNA injection)
Format: cell-based.

In general, Ki refers to a measure of affinity in units of concentration, obtained from inhibition or displacement. For the compound `CCC12CCN(CC3(O)CC3)C(Cc3ccc(O)cc31)C2(C)C` (racemic) [(±)bremazocine], in experiment [1], the Ki was 1.4 nM.
As for `CN1CC[C@]23c4c5ccc(O)c4O[C@H]2[C@@H](O)C=C[C@H]3[C@H]1C5` [Morphine], the “induction of potassium conductance (in words)” value in experiment [2] is “no potassium conductance was induced”.
